Test results published in US20070160574A1, “Design of CXC chemokine analogs for the treatment of human diseases” (priority 2000, published 2007).

Tested on: IL-8 receptor (differentiated HL-60 cells)
Assay: Calcium mobilization in differentiated HL-60 cells, Fluo-4/AM
Format: cell-based
Conditions: over control wells (plain medium = 1.0), about 10 to 200 μg/ml
Experimental: The HL-60 cells are cultured as described above, harvested and suspended in Tyrode's salt solution at a density of about 2×10^6 cells/ml. The Tyrode's salt solution contains about 137 mM NaCl, 2.7 mM KCl, 1 mM MgCl2, 1 mM CaCl2, 0.2 mM NaH2PO4, 12 mM NaHCO3, and 5.5 mM glucose.
The cells are labeled with 4 μM of Fluo-4/AM (Molecular Probes, Inc.) for 45 minutes at 37° C. to measure calcium mobilization from cells. The label is a dye that fluoresces when bound to calcium. […] An increase in fluorescence indicates an increase in calcium mobilization. The cells are washed three times with the Tyrode's salt solution after labeling and re-suspended at 5×10^6 cells/ml.
Changes in the level of cellular fluorescence are read in a Thermo Labsystems Fluorskan Acsent fluorescence plate reader (VWR Scientific Prod's). The controls include cells treated with either the native chemokine or the plain medium of Tyrode's Salt Solution. Data is expressed using 1.0 as the standard level of fluorescence in the plain medium. The reported values represent the mean of at least duplicate measurements from wells in one or more experiments.

## CC[C@H](C)[C@H](NC(=O)[C@H](Cc1ccccc1)NC(=O)[C@H](CCC(N)=O)NC(=O)[C@H](Cc1ccc(O)cc1)NC(=O)[C@H](CCCNC(=N)N)NC(=O)[C@H](CC(C)C)NC(=O)[C@H](CCC(=O)O)NC(=O)[C@H](CCCCN)NC(=O)[C@H](C)NC(=O)[C@H](CO)NC(C)=O)C(=O)N[C@@H](CCCCN)C(=O)N[C@H](C(=O)N[C@@H](Cc1ccc(O)cc1)C(=O)N[C@@H](CO)C(=O)N[C@@H](CCCCN)C(=O)NCCCCCCCCCCC(=O)N[C@@H](CC(N)=O)C(=O)N[C@@H](Cc1c[nH]c2ccccc12)C(=O)N[C@H](C(=O)N[C@@H](CCC(N)=O)C(=O)N[C@@H](CCCNC(=N)N)C(=O)N[C@H](C(=O)N[C@H](C(=O)N[C@@H](CCC(=O)O)C(=O)N[C@@H](CCCCN)C(=O)N[C@@H](Cc1ccccc1)C(=O)N[C@@H](CC(C)C)C(=O)N[C@@H](CCCCN)C(=O)N[C@@H](CCCNC(=N)N)C(=O)N[C@@H](C)C(=O)N[C@@H](CCC(=O)O)C(=O)N[C@@H](CC(N)=O)C(N)=O)C(C)C)C(C)C)C(C)C)[C@@H](C)O [SEQ ID NO:1655]
Listed as 1655
  Average fold increase in calcium mobilization: 41.8

## CC[C@H](C)[C@H](NC(=O)[C@H](Cc1ccccc1)NC(=O)[C@H](CCC(N)=O)NC(=O)[C@H](C)NC(=O)[C@H](CCCNC(=N)N)NC(=O)[C@H](CC(C)C)NC(=O)[C@H](CCC(=O)O)NC(=O)[C@H](CCCCN)NC(=O)[C@H](C)NC(=O)[C@@H](N)CO)C(=O)N[C@@H](CCCCN)C(=O)N[C@H](C(=O)N[C@@H](Cc1ccc(O)cc1)C(=O)N[C@@H](CO)C(=O)N[C@@H](CCCCN)C(=O)NCCCCCCCCCCC(=O)N[C@@H](CC(N)=O)C(=O)N[C@@H](Cc1c[nH]c2ccccc12)C(=O)N[C@H](C(=O)N[C@@H](CCC(N)=O)C(=O)N[C@@H](CCCNC(=N)N)C(=O)N[C@H](C(=O)N[C@H](C(=O)N[C@@H](CCC(=O)O)C(=O)N[C@@H](CCCCN)C(=O)N[C@@H](Cc1ccccc1)C(=O)N[C@@H](CC(C)C)C(=O)N[C@@H](CCCCN)C(=O)N[C@@H](CCCNC(=N)N)C(=O)N[C@@H](C)C(=O)N[C@@H](CCC(=O)O)C(=O)N[C@@H](CC(N)=O)C(N)=O)C(C)C)C(C)C)C(C)C)[C@@H](C)O [SEQ ID NO:1663]
Listed as 1663
  Average fold increase in calcium mobilization: 112.9

## CC[C@H](C)[C@H](NC(=O)[C@H](C)NC(=O)[C@H](CCC(N)=O)NC(=O)[C@H](Cc1ccc(O)cc1)NC(=O)[C@H](CCCNC(=N)N)NC(=O)[C@H](CC(C)C)NC(=O)[C@H](CCC(=O)O)NC(=O)[C@H](CCCCN)NC(=O)[C@H](C)NC(=O)[C@@H](N)CO)C(=O)N[C@@H](CCCCN)C(=O)N[C@H](C(=O)N[C@@H](Cc1ccc(O)cc1)C(=O)N[C@@H](CO)C(=O)N[C@@H](CCCCN)C(=O)NCCCCCCCCCCC(=O)N[C@@H](CC(N)=O)C(=O)N[C@@H](Cc1c[nH]c2ccccc12)C(=O)N[C@H](C(=O)N[C@@H](CCC(N)=O)C(=O)N[C@@H](CCCNC(=N)N)C(=O)N[C@H](C(=O)N[C@H](C(=O)N[C@@H](CCC(=O)O)C(=O)N[C@@H](CCCCN)C(=O)N[C@@H](Cc1ccccc1)C(=O)N[C@@H](CC(C)C)C(=O)N[C@@H](CCCCN)C(=O)N[C@@H](CCCNC(=N)N)C(=O)N[C@@H](C)C(=O)N[C@@H](CCC(=O)O)C(=O)N[C@@H](CC(N)=O)C(N)=O)C(C)C)C(C)C)C(C)C)[C@@H](C)O [SEQ ID NO:1656]
  Average fold increase in calcium mobilization: 86.8

## CC[C@H](C)[C@H](NC(=O)[C@H](Cc1c[nH]c2ccccc12)NC(=O)[C@H](CCC(N)=O)NC(=O)[C@H](Cc1ccc(O)cc1)NC(=O)[C@H](CCCNC(=N)N)NC(=O)[C@H](CC(C)C)NC(=O)[C@H](CCC(=O)O)NC(=O)[C@H](CCCCN)NC(=O)[C@H](C)NC(=O)[C@H](CO)NC(C)=O)C(=O)N[C@@H](CCCNC(=N)N)C(=O)N[C@H](C(=O)N[C@@H](Cc1ccc(O)cc1)C(=O)N[C@@H](CO)C(=O)N[C@@H](CCCNC(=N)N)C(=O)NCCCCCCCCCCC(=O)N[C@@H](CC(N)=O)C(=O)N[C@@H](Cc1c[nH]c2ccccc12)C(=O)N[C@H](C(=O)N[C@@H](CCC(N)=O)C(=O)N[C@@H](CCCNC(=N)N)C(=O)N[C@H](C(=O)N[C@H](C(=O)N[C@@H](CCC(=O)O)C(=O)N[C@@H](CCCCN)C(=O)N[C@@H](Cc1ccccc1)C(=O)N[C@@H](CC(C)C)C(=O)N[C@@H](CCCCN)C(=O)N[C@@H](CCCNC(=N)N)C(=O)N[C@@H](C)C(=O)N[C@@H](CCC(=O)O)C(=O)N[C@@H](CC(N)=O)C(N)=O)C(C)C)C(C)C)C(C)C)[C@@H](C)O [SEQ ID NO:1673]
  Average fold increase in calcium mobilization: 5.7

## CC[C@H](C)[C@H](NC(=O)[C@H](Cc1ccc(O)cc1)NC(=O)[C@H](CCC(N)=O)NC(=O)[C@H](Cc1c[nH]cn1)NC(=O)[C@H](CCCNC(=N)N)NC(=O)[C@H](CC(C)C)NC(=O)[C@H](CCC(=O)O)NC(=O)[C@H](CCCCN)NC(=O)[C@H](C)NC(=O)[C@H](CO)NC(C)=O)C(=O)N[C@@H](CCCCN)C(=O)N[C@H](C(=O)N[C@@H](Cc1ccc(O)cc1)C(=O)N[C@@H](CO)C(=O)N[C@@H](CCCCN)C(=O)NCCCCCCCCCCC(=O)N[C@@H](CC(N)=O)C(=O)N[C@@H](Cc1c[nH]c2ccccc12)C(=O)N[C@H](C(=O)N[C@@H](CCC(N)=O)C(=O)N[C@@H](CCCNC(=N)N)C(=O)N[C@H](C(=O)N[C@H](C(=O)N[C@@H](CCC(=O)O)C(=O)N[C@@H](CCCCN)C(=O)N[C@@H](Cc1ccccc1)C(=O)N[C@@H](CC(C)C)C(=O)N[C@@H](CCCCN)C(=O)N[C@@H](CCCNC(=N)N)C(=O)N[C@@H](C)C(=O)N[C@@H](CCC(=O)O)C(=O)N[C@@H](CC(N)=O)C(N)=O)C(C)C)C(C)C)C(C)C)[C@@H](C)O [SEQ ID NO:1668]
  Average fold increase in calcium mobilization: 105.4

## CC[C@H](C)[C@H](NC(=O)[C@H](Cc1ccccc1)NC(=O)[C@H](CCC(N)=O)NC(=O)[C@H](C)NC(=O)[C@H](CCCNC(=N)N)NC(=O)[C@H](CC(C)C)NC(=O)[C@H](CCC(=O)O)NC(=O)[C@H](CCCCN)NC(=O)[C@H](C)NC(=O)[C@H](CO)NC(C)=O)C(=O)N[C@@H](CCCCN)C(=O)N[C@H](C(=O)N[C@@H](Cc1ccc(O)cc1)C(=O)N[C@@H](CO)C(=O)N[C@@H](CCCCN)C(=O)NCCCCCCCCCCC(=O)N[C@@H](CC(N)=O)C(=O)N[C@@H](Cc1c[nH]c2ccccc12)C(=O)N[C@H](C(=O)N[C@@H](CCC(N)=O)C(=O)N[C@@H](CCCNC(=N)N)C(=O)N[C@H](C(=O)N[C@H](C(=O)N[C@@H](CCC(=O)O)C(=O)N[C@@H](CCCCN)C(=O)N[C@@H](Cc1ccccc1)C(=O)N[C@@H](CC(C)C)C(=O)N[C@@H](CCCCN)C(=O)N[C@@H](CCCNC(=N)N)C(=O)N[C@@H](C)C(=O)N[C@@H](CCC(=O)O)C(=O)N[C@@H](CC(N)=O)C(N)=O)C(C)C)C(C)C)C(C)C)[C@@H](C)O [SEQ ID NO:1664]
  Average fold increase in calcium mobilization: 147.5

## CC[C@H](C)[C@H](NC(=O)[C@H](Cc1c[nH]c2ccccc12)NC(=O)[C@H](CCC(N)=O)NC(=O)[C@H](Cc1c[nH]cn1)NC(=O)[C@H](CCCNC(=N)N)NC(=O)[C@H](CC(C)C)NC(=O)[C@H](CCC(=O)O)NC(=O)[C@H](CCCCN)NC(=O)[C@H](C)NC(=O)[C@H](CO)NC(C)=O)C(=O)N[C@@H](CCCNC(=N)N)C(=O)N[C@H](C(=O)N[C@@H](Cc1ccc(O)cc1)C(=O)N[C@@H](CO)C(=O)N[C@@H](CCCNC(=N)N)C(=O)NCCCCCCCCCCC(=O)N[C@@H](CC(N)=O)C(=O)N[C@@H](Cc1c[nH]c2ccccc12)C(=O)N[C@H](C(=O)N[C@@H](CCC(N)=O)C(=O)N[C@@H](CCCNC(=N)N)C(=O)N[C@H](C(=O)N[C@H](C(=O)N[C@@H](CCC(=O)O)C(=O)N[C@@H](CCCCN)C(=O)N[C@@H](Cc1ccccc1)C(=O)N[C@@H](CC(C)C)C(=O)N[C@@H](CCCCN)C(=O)N[C@@H](CCCNC(=N)N)C(=O)N[C@@H](C)C(=O)N[C@@H](CCC(=O)O)C(=O)N[C@@H](CC(N)=O)C(N)=O)C(C)C)C(C)C)C(C)C)[C@@H](C)O [SEQ ID NO:1675]
  Average fold increase in calcium mobilization: 12.2

## CC[C@H](C)[C@H](NC(=O)[C@H](Cc1c[nH]c2ccccc12)NC(=O)[C@H](CCC(N)=O)NC(=O)[C@H](Cc1c[nH]c2ccccc12)NC(=O)[C@H](CCCNC(=N)N)NC(=O)[C@H](CC(C)C)NC(=O)[C@H](CCC(=O)O)NC(=O)[C@H](CCCCN)NC(=O)[C@H](C)NC(=O)[C@H](CO)NC(C)=O)C(=O)N[C@@H](CCCNC(=N)N)C(=O)N[C@H](C(=O)N[C@@H](Cc1ccc(O)cc1)C(=O)N[C@@H](CO)C(=O)N[C@@H](CCCNC(=N)N)C(=O)NCCCCCCCCCCC(=O)N[C@@H](CC(N)=O)C(=O)N[C@@H](Cc1c[nH]c2ccccc12)C(=O)N[C@H](C(=O)N[C@@H](CCC(N)=O)C(=O)N[C@@H](CCCNC(=N)N)C(=O)N[C@H](C(=O)N[C@H](C(=O)N[C@@H](CCC(=O)O)C(=O)N[C@@H](CCCCN)C(=O)N[C@@H](Cc1ccccc1)C(=O)N[C@@H](CC(C)C)C(=O)N[C@@H](CCCCN)C(=O)N[C@@H](CCCNC(=N)N)C(=O)N[C@@H](C)C(=O)N[C@@H](CCC(=O)O)C(=O)N[C@@H](CC(N)=O)C(N)=O)C(C)C)C(C)C)C(C)C)[C@@H](C)O [SEQ ID NO:1674]
  Average fold increase in calcium mobilization: 1.4
